Values of other authors as cited in US20120142750A1, “INDOLEAMINE 2,3-DIOXYGENASE PATHWAYS IN THE GENERATION OF REGULATORY T CELLS” (Regents of the University of Minnesota, priority 2005, published 2012).

By UniProt entry, the sequences of proteins in these tests, tags left out.
UniProt P14902, whole entry: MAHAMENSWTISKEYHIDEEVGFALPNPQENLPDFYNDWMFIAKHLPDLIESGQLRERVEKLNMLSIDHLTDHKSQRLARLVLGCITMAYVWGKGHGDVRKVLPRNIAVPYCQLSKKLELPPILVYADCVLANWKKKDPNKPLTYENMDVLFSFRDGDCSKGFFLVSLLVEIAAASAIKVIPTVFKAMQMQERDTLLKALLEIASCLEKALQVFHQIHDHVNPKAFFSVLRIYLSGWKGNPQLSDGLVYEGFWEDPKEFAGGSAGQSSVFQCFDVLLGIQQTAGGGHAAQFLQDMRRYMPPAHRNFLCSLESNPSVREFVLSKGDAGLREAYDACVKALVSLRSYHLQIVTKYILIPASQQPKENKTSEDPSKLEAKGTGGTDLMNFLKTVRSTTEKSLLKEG

Molecular target: IDO
Settings: approximate literature value; cited from earlier work

Row | Structure (SMILES) | Ki
1 | CN1C(=O)C(Cc2c[nH]c3ccccc23)NC1=S (stereo not drawn) | 11 µM
2 | CNC(=N)NC(=N)Nc1cc2ccccc2c2ccccc12 | 1.5 µM

Molecular target: IDO (Homo sapiens, UniProt P14902)
Settings: approximate literature value; cited from earlier work

Row | Structure (SMILES) | EC50
3 | CC(=O)Oc1cn(C(C)=O)c2ccc(Br)cc12 | 200 µM
4 | CN1C(=O)C(Cc2c[nH]c3ccccc23)NC1=S (stereo not drawn) | 12 to 20 µM
5 | COC(=O)C1Cc2c([nH]c3ccccc23)C(C(=O)OC)Cc2c1[nH]c1ccccc21 (stereo not drawn) | 1 µM
6 | O=C1N=c2ccc(S(=O)(=O)O)cc2=C1NNc1ccccc1[N+](=O)[O-] | 5 µM
7 | OCc1c[nH]c2ccccc12 | 100 µM
8 | COc1ccc(C(Nc2ccccn2)c2cc(C(C)(C)C)cc(C(C)(C)C)c2O)cc1 (stereo not drawn) | 6 µM
9 | O=C1C(Cc2c[nH]c3ccccc23)NC(=S)N1c1ccccc1 (stereo not drawn) | 100 µM
10 | C=CCN1C(=O)C(Cc2c[nH]c3ccccc23)NC1=S (stereo not drawn) | 50 µM
11 | N=C(c1ccc2ccccc2c1)c1ccccc1Cc1ccccc1 | 5 µM
12 | CNC(=N)NC(=N)Nc1cc2ccccc2c2ccccc12 | 3 µM
